Assay [1] concerns Platelet-derived growth factor receptor alpha (Homo sapiens), P16234 [V561D]. The settings on record: dose 100.0 nM.
For assay [2], the target named is Vascular endothelial growth factor receptor 1 (Homo sapiens) (UniProt P17948). Conditions: dose 100.0 nM.
The target in assay [3] is Proto-oncogene tyrosine-protein kinase receptor Ret (Homo sapiens) (UniProt P07949). The settings on record: dose 100.0 nM.
Assay [4] addresses Tyrosine-protein kinase Yes (Homo sapiens) (UniProt P07947). Conditions: dose 100.0 nM.
Assay [5] addresses Histone deacetylase (Homo sapiens) (UniProt Q13547+O15379+Q9UBN7+Q92769+Q9UQL6+Q8WUI4+Q9BY41+Q96DB2+P56524+Q9UKV0+Q969S8). Conditions: SNU-16, dose 1-100 nM, time 36.0 hrs.

Chains of the proteins cited; added tags and fusions are not shown. Lines headed by an entry give the natural chain unless they say otherwise; changes in a name come on top.
Platelet-derived growth factor receptor alpha (Homo sapiens), P16234, UniProt P16234, whole entry V561D: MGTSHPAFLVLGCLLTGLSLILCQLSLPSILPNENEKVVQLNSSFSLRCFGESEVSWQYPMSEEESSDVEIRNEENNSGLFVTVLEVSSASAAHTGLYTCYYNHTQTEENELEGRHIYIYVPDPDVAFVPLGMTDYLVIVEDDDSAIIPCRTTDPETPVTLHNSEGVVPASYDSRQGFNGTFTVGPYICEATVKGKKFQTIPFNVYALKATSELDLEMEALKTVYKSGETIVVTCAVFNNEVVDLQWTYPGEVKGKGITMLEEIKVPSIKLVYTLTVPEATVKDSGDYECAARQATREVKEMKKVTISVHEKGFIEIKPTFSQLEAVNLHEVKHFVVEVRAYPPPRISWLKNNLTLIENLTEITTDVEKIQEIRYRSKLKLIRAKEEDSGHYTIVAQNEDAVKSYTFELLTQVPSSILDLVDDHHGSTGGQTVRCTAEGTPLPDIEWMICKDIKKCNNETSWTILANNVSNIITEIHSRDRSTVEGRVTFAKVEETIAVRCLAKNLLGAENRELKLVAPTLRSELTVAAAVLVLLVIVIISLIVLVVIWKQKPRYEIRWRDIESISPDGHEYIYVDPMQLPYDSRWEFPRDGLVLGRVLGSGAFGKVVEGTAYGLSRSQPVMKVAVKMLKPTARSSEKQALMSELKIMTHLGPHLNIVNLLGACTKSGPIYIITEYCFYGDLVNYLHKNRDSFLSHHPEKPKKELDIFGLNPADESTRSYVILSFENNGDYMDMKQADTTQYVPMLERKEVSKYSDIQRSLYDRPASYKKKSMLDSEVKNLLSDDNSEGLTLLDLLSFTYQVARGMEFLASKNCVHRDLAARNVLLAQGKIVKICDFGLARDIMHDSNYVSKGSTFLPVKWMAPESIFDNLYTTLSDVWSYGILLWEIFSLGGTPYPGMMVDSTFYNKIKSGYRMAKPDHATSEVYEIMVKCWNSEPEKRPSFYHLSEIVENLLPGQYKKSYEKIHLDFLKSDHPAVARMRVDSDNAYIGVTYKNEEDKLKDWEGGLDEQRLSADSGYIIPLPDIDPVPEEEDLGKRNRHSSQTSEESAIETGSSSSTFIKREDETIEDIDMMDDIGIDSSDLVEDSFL
UniProt P17948, whole entry: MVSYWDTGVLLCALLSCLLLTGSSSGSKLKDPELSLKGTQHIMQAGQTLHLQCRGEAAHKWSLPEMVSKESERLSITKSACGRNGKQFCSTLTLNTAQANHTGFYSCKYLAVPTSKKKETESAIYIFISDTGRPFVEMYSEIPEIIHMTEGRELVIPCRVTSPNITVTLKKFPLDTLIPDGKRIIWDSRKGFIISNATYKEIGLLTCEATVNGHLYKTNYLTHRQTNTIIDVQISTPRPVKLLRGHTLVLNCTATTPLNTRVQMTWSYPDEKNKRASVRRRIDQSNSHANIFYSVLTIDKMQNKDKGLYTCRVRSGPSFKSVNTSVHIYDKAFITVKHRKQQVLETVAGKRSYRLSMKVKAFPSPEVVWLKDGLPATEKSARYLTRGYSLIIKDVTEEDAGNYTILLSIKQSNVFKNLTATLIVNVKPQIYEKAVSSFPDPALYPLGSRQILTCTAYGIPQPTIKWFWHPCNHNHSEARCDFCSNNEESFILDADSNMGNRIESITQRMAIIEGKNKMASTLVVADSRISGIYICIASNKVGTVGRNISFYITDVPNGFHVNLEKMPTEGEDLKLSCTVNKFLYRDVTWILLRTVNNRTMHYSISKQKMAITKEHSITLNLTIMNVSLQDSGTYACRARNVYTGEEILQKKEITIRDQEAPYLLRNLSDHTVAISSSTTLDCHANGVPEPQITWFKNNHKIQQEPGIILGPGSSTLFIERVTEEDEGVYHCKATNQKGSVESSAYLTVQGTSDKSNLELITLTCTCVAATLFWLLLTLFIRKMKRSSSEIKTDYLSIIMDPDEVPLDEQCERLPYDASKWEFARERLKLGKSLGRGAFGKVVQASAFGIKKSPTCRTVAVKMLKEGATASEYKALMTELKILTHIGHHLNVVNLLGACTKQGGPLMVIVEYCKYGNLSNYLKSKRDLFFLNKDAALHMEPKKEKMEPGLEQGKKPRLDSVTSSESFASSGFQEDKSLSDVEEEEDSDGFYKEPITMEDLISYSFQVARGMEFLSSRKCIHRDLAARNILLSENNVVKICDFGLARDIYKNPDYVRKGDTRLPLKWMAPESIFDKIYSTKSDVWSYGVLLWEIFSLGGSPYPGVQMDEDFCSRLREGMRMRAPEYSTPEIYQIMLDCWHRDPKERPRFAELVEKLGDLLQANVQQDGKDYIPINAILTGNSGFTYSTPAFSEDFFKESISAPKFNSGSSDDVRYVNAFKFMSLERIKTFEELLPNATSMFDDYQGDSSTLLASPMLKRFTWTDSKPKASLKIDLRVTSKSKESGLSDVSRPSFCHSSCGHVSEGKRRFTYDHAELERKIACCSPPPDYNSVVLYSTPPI
UniProt P07949, whole entry: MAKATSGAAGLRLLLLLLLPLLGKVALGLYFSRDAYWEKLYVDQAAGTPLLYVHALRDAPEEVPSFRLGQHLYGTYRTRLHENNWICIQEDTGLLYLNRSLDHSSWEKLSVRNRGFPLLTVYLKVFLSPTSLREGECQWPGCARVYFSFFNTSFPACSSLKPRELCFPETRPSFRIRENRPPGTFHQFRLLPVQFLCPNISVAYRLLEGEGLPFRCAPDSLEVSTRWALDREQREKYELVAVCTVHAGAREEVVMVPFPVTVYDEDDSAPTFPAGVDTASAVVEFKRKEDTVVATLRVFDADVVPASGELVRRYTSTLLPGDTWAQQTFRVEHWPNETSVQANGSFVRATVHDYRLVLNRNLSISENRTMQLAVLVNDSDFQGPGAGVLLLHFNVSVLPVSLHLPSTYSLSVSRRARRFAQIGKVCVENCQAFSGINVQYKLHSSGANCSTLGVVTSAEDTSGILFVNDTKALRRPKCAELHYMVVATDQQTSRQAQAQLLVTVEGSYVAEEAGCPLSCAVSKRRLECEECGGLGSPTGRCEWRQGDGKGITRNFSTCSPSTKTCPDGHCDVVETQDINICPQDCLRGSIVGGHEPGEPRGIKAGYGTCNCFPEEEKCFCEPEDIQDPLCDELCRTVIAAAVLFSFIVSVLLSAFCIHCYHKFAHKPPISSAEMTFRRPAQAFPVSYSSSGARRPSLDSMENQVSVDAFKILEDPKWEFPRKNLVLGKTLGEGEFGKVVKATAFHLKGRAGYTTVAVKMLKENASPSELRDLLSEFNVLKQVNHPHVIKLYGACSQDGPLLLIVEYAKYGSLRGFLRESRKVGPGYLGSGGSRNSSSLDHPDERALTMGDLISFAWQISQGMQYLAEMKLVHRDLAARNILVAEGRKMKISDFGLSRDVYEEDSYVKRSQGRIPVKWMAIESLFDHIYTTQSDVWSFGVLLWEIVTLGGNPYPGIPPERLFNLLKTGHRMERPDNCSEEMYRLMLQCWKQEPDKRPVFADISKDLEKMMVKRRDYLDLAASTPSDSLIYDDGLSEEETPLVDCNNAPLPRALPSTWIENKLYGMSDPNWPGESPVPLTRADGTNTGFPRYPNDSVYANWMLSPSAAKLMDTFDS
UniProt Q13547: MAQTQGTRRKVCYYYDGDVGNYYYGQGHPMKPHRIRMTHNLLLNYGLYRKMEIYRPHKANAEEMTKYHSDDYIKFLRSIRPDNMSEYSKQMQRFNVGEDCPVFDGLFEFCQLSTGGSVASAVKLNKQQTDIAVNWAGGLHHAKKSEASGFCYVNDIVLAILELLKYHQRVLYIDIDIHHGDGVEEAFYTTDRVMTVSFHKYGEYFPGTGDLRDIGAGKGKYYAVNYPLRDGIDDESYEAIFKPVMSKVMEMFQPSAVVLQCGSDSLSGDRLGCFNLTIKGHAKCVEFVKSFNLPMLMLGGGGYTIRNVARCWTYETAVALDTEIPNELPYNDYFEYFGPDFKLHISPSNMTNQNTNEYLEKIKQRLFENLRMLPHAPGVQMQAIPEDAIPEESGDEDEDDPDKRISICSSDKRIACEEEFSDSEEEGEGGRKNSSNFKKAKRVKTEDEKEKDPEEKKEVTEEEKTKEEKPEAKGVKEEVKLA
UniProt Q9UQL6: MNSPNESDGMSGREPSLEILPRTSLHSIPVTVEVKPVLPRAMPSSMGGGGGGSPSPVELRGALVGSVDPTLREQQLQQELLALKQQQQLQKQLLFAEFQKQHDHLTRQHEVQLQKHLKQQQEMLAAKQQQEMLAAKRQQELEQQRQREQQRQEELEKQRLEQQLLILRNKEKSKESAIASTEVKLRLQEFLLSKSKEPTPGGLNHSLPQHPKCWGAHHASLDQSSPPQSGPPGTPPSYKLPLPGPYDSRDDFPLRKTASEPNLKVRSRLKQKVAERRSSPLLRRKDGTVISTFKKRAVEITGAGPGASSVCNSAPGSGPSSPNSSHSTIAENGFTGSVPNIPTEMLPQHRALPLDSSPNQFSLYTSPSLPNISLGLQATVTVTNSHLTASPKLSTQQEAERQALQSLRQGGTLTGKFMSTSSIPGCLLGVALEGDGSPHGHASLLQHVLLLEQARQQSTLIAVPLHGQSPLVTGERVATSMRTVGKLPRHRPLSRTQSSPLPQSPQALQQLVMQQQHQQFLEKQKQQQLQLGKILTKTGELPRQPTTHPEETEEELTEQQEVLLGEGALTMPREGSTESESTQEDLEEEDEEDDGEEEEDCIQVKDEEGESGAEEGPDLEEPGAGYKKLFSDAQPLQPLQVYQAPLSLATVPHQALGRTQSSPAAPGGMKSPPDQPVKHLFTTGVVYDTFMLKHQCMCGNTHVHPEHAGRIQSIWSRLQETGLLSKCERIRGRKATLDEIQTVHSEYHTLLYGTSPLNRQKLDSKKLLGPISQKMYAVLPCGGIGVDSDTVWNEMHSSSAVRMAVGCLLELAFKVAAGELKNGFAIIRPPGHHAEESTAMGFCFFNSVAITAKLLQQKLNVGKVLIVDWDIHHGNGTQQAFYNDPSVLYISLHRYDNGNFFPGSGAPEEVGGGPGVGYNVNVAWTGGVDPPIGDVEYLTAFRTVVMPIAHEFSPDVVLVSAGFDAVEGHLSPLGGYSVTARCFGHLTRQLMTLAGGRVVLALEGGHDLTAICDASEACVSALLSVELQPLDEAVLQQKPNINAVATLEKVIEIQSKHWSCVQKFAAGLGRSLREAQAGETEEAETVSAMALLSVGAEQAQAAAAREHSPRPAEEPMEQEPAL
UniProt Q9BY41: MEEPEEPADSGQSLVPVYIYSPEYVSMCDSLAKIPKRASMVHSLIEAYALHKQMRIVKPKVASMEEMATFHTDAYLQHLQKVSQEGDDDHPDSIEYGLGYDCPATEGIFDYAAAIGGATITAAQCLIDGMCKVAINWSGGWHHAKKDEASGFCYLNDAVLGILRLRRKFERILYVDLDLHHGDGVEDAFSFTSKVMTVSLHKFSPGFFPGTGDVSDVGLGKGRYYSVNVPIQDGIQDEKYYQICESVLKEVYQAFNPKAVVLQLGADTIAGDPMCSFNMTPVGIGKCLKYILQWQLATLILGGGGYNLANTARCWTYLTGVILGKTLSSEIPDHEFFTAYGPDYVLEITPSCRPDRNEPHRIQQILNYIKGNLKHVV
UniProt Q96DB2: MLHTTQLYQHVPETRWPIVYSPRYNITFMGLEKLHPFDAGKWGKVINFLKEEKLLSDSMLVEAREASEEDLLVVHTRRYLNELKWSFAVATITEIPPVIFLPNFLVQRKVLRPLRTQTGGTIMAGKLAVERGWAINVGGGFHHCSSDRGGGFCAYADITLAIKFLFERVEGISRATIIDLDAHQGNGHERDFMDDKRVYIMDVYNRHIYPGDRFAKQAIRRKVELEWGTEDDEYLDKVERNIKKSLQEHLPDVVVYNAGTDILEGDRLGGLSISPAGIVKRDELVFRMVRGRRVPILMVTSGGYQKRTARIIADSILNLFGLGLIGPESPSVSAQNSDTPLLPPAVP
UniProt Q969S8: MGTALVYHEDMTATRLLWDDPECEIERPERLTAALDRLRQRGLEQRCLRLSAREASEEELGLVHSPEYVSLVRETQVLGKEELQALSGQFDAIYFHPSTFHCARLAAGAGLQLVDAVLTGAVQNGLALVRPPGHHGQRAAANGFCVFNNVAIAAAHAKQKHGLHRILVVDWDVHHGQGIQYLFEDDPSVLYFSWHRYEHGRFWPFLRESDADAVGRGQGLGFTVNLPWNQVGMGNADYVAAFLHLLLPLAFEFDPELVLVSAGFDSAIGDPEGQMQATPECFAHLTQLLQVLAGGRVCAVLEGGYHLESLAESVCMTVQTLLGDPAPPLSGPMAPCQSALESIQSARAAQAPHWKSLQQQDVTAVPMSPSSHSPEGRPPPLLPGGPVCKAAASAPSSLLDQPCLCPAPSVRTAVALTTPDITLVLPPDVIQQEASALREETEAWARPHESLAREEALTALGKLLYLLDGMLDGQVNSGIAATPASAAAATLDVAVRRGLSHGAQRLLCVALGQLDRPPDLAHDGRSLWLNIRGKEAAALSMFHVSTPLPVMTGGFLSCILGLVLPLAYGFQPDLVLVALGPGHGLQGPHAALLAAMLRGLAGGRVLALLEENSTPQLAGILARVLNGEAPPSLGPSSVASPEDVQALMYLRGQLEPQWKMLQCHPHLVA

Activity calls are given as the source filed them. The calls are words filed in the database; no cut-off is given here.

These results are taken from ChEMBL document CHEMBL5150061, “Design and Synthesis of Fibroblast Growth Factor Receptor (FGFR) and Histone Deacetylase (HDAC) Dual Inhibitors for the Treatment of Cancer” (J Med Chem, 2022).

Usually inhibition stands for the drop in the measured response relative to a control, in per cent. Consider `COc1cc(OC)cc(N(CCNC(C)C)c2ccc3ncc(-c4cnn(CCCCCCC(=O)NO)c4)nc3c2)c1`, for which the inhibition in assay [1], in assay [2], in assay [3] and in assay [4] was more than 90% each time. For the same molecule, the inhibition entry in assay [5] is “Active”.
